RXFP1 antag – blocks the human relaxin receptor RXFP1 | Q9HBX9 | HEK293-RXFP1, relaxin-stimulated cAMP HTRF, 30 min; stronger effect = lower value | activity change, negative = inhibition, % at 57.5 µM | 350,000 tested, 0.59% active;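 active = activity change of -60% or lower, but not beyond a set lower limit; inconclusive = change between -60% and -40%, or beyond the set limit; inactive = change above -40%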; also: % is scaled to controls: 0 for no effect and ±100 for the full control effect
miR-21 FLuc – miR-21 reporter, rising signal | HeLa miR-21 FLuc reporter, luciferase, 48 h | Potency, µM (top dose mostly 38.3 µM), inactives show at the highest dose reporter change, positive = more light | 340,000 tested, under 10 active | AID 2288; active = well fitted rising curve with a large enough effect; inconclusive = small, poorly fitted or top-dose-only effect; inactive = no such curve, though single readings can be large or run the other way;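 note: % of control where 0% means no effect; miR-21 action dims this reporter so a rising signal means less miR-21 action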
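HeLa miR-21-FLuc reporter line, endogenous miR-21; 2000 cells/well in DMEM/10% FBS; compound titration up to ~40uM final, 48 h, 37 degree Celsius; luciferase detection reagent, 15 min lysis, CCD luminescence.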
ERG-DNA inh – blocks human ERG Ets domain binding to DNA. Potency, µM (titrated, usually from 76.9 µM), for inactives: at the top dose FP activity, negative = inhibition, usual class: inhibitors. P11308. AID 624246. fluorescence polarization, His-ERG Ets domain / labelled DNA. 370,000 tested, 0.028% active; active = well fitted inhibition curve with a large enough effect in the polarisation, with a control signal flat; inconclusive = small, poorly fitted or top-dose-only effect, or effect the other way, or a change in a side signal; inactive = no such curve, though single readings can be large or run the other way; the % refers to the polarisation;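 also: polarization taken with two DNA probes labelled with fluorescein and Texas red; potency is read from the fitted curve at half-maximal effect; % of control where 0% means no effect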
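His-tagged ERG Ets domain (1 uM in the protein solution; 300mM KCl, 50mM Tris-HCl, 1mM EDTA, 1mM DTT, pH 7.5) received compound, then a probe mix of 5 nM fluorescein-DNA and 100nM Texas-615-DNA. Fluorescence polarization was read for both dyes.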
RXFP1 ag – RXFP1 (human) receptor agonism; HEK293T-RXFP1 cAMP TR-FRET, 30 min; response scale: percent of porcine relaxin response, buffer zero; 370,000 tested, 0.3% active; Potency, µM (titrated, usually from 57.5 µM), for inactives: at the top dose activation, usual class: activators; also: potency is read from the fitted curve at half-maximal effect; % is scaled to controls: 0 for no effect and ±100 for the full control effect; nearly all actives have a fitted effect of over 60% in size
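HEK293T cells stably expressing RXFP1 were pretreated with the PDE4 inhibitor Ro 20174, exposed to compounds for 30 min at 37C, lysed, and cAMP was read by TR-FRET. Data normalized to buffer (basal) and 29 nM porcine relaxin (100%).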
S-ASM inh – blocks human secretory acid sphingomyelinase. placental ASM, HMU-PC fluorogenic substrate, 60 min. 340,000 tested, 0.006% active. Potency, µM (titrated, usually from 57.5 µM), for inactives: top-dose activity change, negative = inhibition, actives largely listed as inhibitors. AID 504937. P17405; also: potency is read from the fitted curve at half-maximal effect
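Human placenta-derived ASM enzyme was preincubated with compound for 10 minutes at room temperature, then given fluorogenic substrate HMU-PC0 (9 uM final) for 60 minutes at 37 °C; a pH 10 stop preceded fluorescence reading at Ex 386/Em 447 nm.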
Mito fusion yeast – inhibitors of mitochondrial division or activators of mitochondrial fusion; Potency, µM (top dose mostly 46.1 µM), without a hit: top-dose growth rescue (activation), actives largely listed as activators; S. cerevisiae fusion-defective mutant growth rescue, CellTiterGlo 48 h; 320,000 tested, 0.23% active; AID 485298; also: potency is read from the fitted curve at half-maximal effect; % of control where 0% means no effect; nearly all actives have a fitted effect of over 45% in size
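Temperature-sensitive fusion-defective S. cerevisiae (e.g. fzo1-1, mgm1-5) were grown with compound in YPEG medium (3% ethanol, 3% glycerol) for 48 hours at 37C. Growth rescue was measured as viability by CellTiterGlo luminescence after 10 minutes at ambient.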
* = called active by the depositor; ? = inconclusive; . = no result given; ! = repeats disagree; [ ] = remark or other dose. Rows were chosen to be rich in hits. Some 0.72% of all compounds tested hit in one or more screens of this group. Unless noted, calls follow the shape of the dose curve; as a rule, active = well fitted curve in the direction sought with a large enough effect; inconclusive = small, poorly fitted or top-dose-only effect, or another doubt; inactive = no such curve, though single readings can be large; an effect the other way counts as inactive or inconclusive.

| # | Compound | RXFP1 antag | miR-21 FLuc | ERG-DNA inh | RXFP1 ag | S-ASM inh | Mito fusion yeast |
| --- | --- | --- | --- | --- | --- | --- | --- |
| 1 | Cc1cccc(-n2c(SCC(=O)Nc3ncc(Cl)cc3Cl)nc3ccccc32)c1 | -21 | 26% | 3% | 0% | -12% | 22µM* |
| 2 | CCCc1ccc(OCC(=O)N2CCN(C(=O)COc3ccc(CCC)cc3OC)CC2)c(OC)c1 | -9 | . | . | . | . | . |
| 3 | COc1cccc(N2C(=O)N(CC(=O)NCc3cccc(OC)c3OC)c3ccccc3S2(=O)=O)c1 | . | 13% | -1% | 3% | . | . |
| 4 | COc1ccc2cc(CNCCOCCOCCNCc3ccc4cc(OC)ccc4c3)ccc2c1 | -89* | . | -6% | . | -4% | . |
| 5 | O=C(NNc1nc(=O)c2cccnc2s1)c1ccccc1O | 13 | -6% | -8% | 16µM* | 1% | 0% |
| 6 | Cc1cccc(NS(=O)(=O)c2cc([N+](=O)[O-])ccc2C)n1 | -62* | 0% | 5% | 4% | 6% | 1% |
| 7 | CC(=O)Nc1ccc(NS(=O)(=O)c2cc([N+](=O)[O-])ccc2C)cc1 | -4 | -2% | 15% | 2% | -6% | 4% |
| 8 | N#CC(c1ccc([N+](=O)[O-])cc1)C(CC(=O)c1ccccc1)c1ccccc1 (stereo unspecified) | -1 | . | 7% | . | -3% | . |

Remaining list, next part
| # | Compound | RXFP1 antag | miR-21 FLuc | ERG-DNA inh | RXFP1 ag | S-ASM inh | Mito fusion yeast |
| --- | --- | --- | --- | --- | --- | --- | --- |
| 9 | N#CC(c1ccccc1)C(CC(=NO)c1ccccc1)c1ccccc1 (stereo unspecified) | -91* | . | . | . | . | . |
| 10 | CCOC(=O)c1c(-c2ccccc2)oc2ccc(OCC(O)CNCCN(C)C)cc12 (stereo unspecified) | -100* | ? | -14% | 0% | 5% | -48% |
| 11 | CCOC(=O)c1c(-c2ccccc2)oc2ccc(OCC)cc12 | -13 | -3% | -4% | 2% | 23% | 24% |
| 12 | COc1cc(S(=O)(=O)N2CCN(Cc3ccc4c(c3)OCO4)CC2)c(C)cc1C | -38 | -15% | -15% | -1% | -1% | 14µM* |
| 13 | C=CCNC(=S)Nc1sc2c(c1C(=O)OCC)CC(C(C)C)OC2 (stereo unspecified) | -96* | -7% | 1% | 2% | 9% | 3% |
| 14 | CCCC[C@]12Cc3cc(C#N)ccc3C(O1)c1c(cc(-c3ccccc3)oc1=O)O2 | . | 0%[7.66 µM] | . | 0%[11.5 µM] | . | 2%[9.22 µM] |
| 15 | CCCC(=O)Nc1nc2ccc(NC(=O)c3ccc(Br)o3)cc2s1 | -19 | -3% | -7% | 0% | ? | ? |
| 16 | Cc1nc2ccc(NC(=O)c3ccc(Br)o3)cc2s1 | -92* | -65% | -1% | -1% | 3% | 2% |

Remaining list, next part.
| # | Compound | RXFP1 antag | miR-21 FLuc | ERG-DNA inh | RXFP1 ag | S-ASM inh | Mito fusion yeast |
| --- | --- | --- | --- | --- | --- | --- | --- |
| 17 | O=C(CN1c2ccccc2S(=O)(=O)c2ccccc21)Nc1ccccc1Cl | -18 | -17% | 2% | -2% | . | . |
| 18 | C/C=C(/C(=C/C)c1ccc(OC(C)=O)cc1)c1ccc(OC(C)=O)cc1 | -12 | . | . | . | . | . |
| 19 | Cc1cc(NC2CCCCC2)nc(-n2nc(C)cc2C)n1 | . | . | . | . | . | 15µM* |
| 20 | C=CC[n+]1c(-c2ccc(Cl)cc2Cl)csc1Nc1c(C)n(C)n(-c2ccccc2)c1=O | -68* | 23% | -1% | 0% | -2% | 10% |
| 21 | O=C(Nc1ccc(Oc2ccc(Cl)cc2)c(Cl)c1)c1cc(I)cc(I)c1O | -92* | 0% | -4% | 2% | -2% | -28% |
| 22 | Cc1ccc(Nc2nc3ccccc3c3nncn23)cc1C | -6 | -10% | 3% | 7% | . | . |
| 23 | CC(=O)Oc1ccccc1C1=NN(C(=O)/C=C/c2ccccc2)C(c2ccccc2)C1 (stereo unspecified) | -9 | -2% | 10% | 0% | -11% | 16µM* |
| 24 | COc1ccc(C2CC(c3ccccc3OC(C)=O)=NN2C(=O)/C=C/c2ccccc2)cc1 (stereo unspecified) | -11 | -10% | -12% | 5% | -8% | ? |

Laid out differently: 5 of the compounds above.
Order of results: RXFP1 antag | miR-21 FLuc | ERG-DNA inh | RXFP1 ag | S-ASM inh | Mito fusion yeast
[22] Cc1ccc(Nc2nc3ccccc3c3nncn23)cc1C
→ -6 | -10% | 3% | 7% | . | .
[21] O=C(Nc1ccc(Oc2ccc(Cl)cc2)c(Cl)c1)c1cc(I)cc(I)c1O
→ -92* | 0% | -4% | 2% | -2% | -28%
[18] C/C=C(/C(=C/C)c1ccc(OC(C)=O)cc1)c1ccc(OC(C)=O)cc1
→ -12 | . | . | . | . | .
[20] C=CC[n+]1c(-c2ccc(Cl)cc2Cl)csc1Nc1c(C)n(C)n(-c2ccccc2)c1=O
→ -68* | 23% | -1% | 0% | -2% | 10%
[19] Cc1cc(NC2CCCCC2)nc(-n2nc(C)cc2C)n1
→ . | . | . | . | . | 15µM*

Remaining list, next part.
| # | Compound | RXFP1 antag | miR-21 FLuc | ERG-DNA inh | RXFP1 ag | S-ASM inh | Mito fusion yeast |
| --- | --- | --- | --- | --- | --- | --- | --- |
| 25 | O=C/C=C/c1c(-c2ccccc2)cc2oc3ccccc3cc1-2 | -91* | 11% | 15% | 2% | -13% | -17% |
| 26 | CCN(Cc1ccccc1)C(=O)c1oc2ccc(S(=O)(=O)N3CCOCC3)cc2c1C | 9 | 3% | 11% | 3% | -4% | 10µM* |
| 27 | CCN(CC)C(=O)c1oc2ccc(S(=O)(=O)N3CCCCCC3)cc2c1C | -1 | 15% | 0% | 3% | -1% | 3% |
| 28 | CC(C)(C)c1ccc(-n2ncc3c2CCCC3NC(=O)CN2CCCCC2=O)cc1 (stereo unspecified) | 4 | 10% | 5% | -6% | 2% | 4.5µM* |
| 29 | CCOCCOC(=O)/C=C/c1ccc(OC)cc1 | 32 | . | . | . | . | . |
| 30 | COc1ccc(OC)c(-c2csc(NC(=O)COC(=O)C3(C)CC3(Cl)Cl)n2)c1 (stereo unspecified) | 0 | . | 2% | 1% | 0% | 16µM* |
| 31 | COc1ccc(CC(=O)Nc2nc(-c3cc(OC)ccc3OC)cs2)cc1 | -13 | 12% | 11% | 3% | -6% | -18% |
| 32 | CC(C)(C)c1ccc(OCc2ccc(C(=O)Nc3cccnc3)o2)cc1 | -64* | 12% | 3% | -3% | ? | ? |

(list continues)
| # | Compound | RXFP1 antag | miR-21 FLuc | ERG-DNA inh | RXFP1 ag | S-ASM inh | Mito fusion yeast |
| --- | --- | --- | --- | --- | --- | --- | --- |
| 33 | O=C(Nc1cccnc1)c1ccc(COc2ccccc2Br)o1 | 14 | 6% | -6% | 3% | -2% | 3% |
| 34 | OC(COC(c1ccccc1)c1ccccc1)CN1CCc2ccccc2C1 (stereo unspecified) | -18 | -3% | -3% | 0% | -3% | -3% |
| 35 | OC(COC(c1ccc(F)cc1)c1ccc(F)cc1)CN1CCc2ccccc2C1 (stereo unspecified) | -62* | -1% | 2% | -3% | 0% | -8% |
| 36 | O=C(CSc1ncc(S(=O)(=O)c2ccc(Br)cc2)c(=O)[nH]1)NCc1ccc(Cl)cc1 | . | 0% | 10% | 0% | . | . |
| 37 | COc1ccc(C2C=C(c3ccccc3)Nc3nc(NC(=O)c4cccc([N+](=O)[O-])c4)nn32)cc1 (stereo unspecified) | -3 | 0% | 0% | -5% | . | . |
| 38 | CCCCN1C(C(=O)c2ccccc2)=C(OC(C)=O)c2ccccc2S1(=O)=O | -63* | ? | 1% | 3% | . | . |
| 39 | CCCCC(=O)OC1=C(C(=O)c2ccccc2)N(CC)S(=O)(=O)c2ccccc21 | ? | -1% | 2% | -1% | . | . |
| 40 | CC(C)C[C@@H]1[C@H](c2ccccc2)OC(=O)N1CCCN1CCCCCC1 | -13 | . | . | . | . | . |
| 41 | Cc1cccc(C(=O)Nc2nnc(S(=O)(=O)N(C)Cc3ccco3)s2)c1 | 3 | -14% | -6% | 14µM*! | 0% | 5% |
| 42 | C/C(=N\O)c1c(O)cc(-c2ccccc2)n(-c2ccccc2)c1=O | -1 | 1% | -3% | 0% | -1% | 2% |
| 43 | Cc1c(O)c2c(=O)n(-c3ccccc3)c(-c3ccccc3)cc2oc1=O | 1 | -7% | -4% | 5% | . | 10µM* |

High-throughput results: PubChem, National Center for Advancing Translational Sciences (NCATS)
